Measured values from US20130096170A1 (priority 2011, published 2013).
Where two headings read alike, the source gives them in different places.

Legend:
[1] = test system: initially intubated and mechanically ventilated pediatric subjects 1 month to <17 years; settings: low dose
[2] = test system: pediatric subjects 1 month to <17 years
[3] = test system: intubated and mechanically ventilated pediatric subjects 2 to <17 years
[4] = test system: intubated and mechanically ventilated pediatric subjects 12 to <24 months
[5] = Dose Level 1, full evaluable population
[6] = Dose Level 2, full evaluable population
[7] = Dose Level 3, full evaluable population
[8] = Dose Level 4, full evaluable population

Cc1cccc([C@H](C)c2cnc[nH]2)c1C [dexmedetomidine]
subjects not requiring rescue midazolam, number and percent of column N ([1]; s/p CPB, Age Group II (24 mo-<17 y), ASA P3, P4, N = 25): 4 (16.0) n (%)
subjects not requiring rescue midazolam, number and percent of column N ([1]; s/p CPB, Age Group II (24 mo-<17 y), total ASA class, N = 33): 4 (12.1) n (%)
median total amount of rescue midazolam while intubated ([1]; subjects that required rescue): 1.965 mg
subjects not requiring rescue midazolam, number and percent of column N ([1]; total, Age Group I (1-<24 mo), ASA P1, P2, N = 29): 9 (31.0) n (%)
subjects not requiring rescue midazolam, number and percent of column N ([1]; total, Age Group I (1-<24 mo), ASA P3, P4, N = 54): 16 (29.6) n (%)
subjects not requiring rescue midazolam, number and percent of column N ([1]; total, Age Group I (1-<24 mo), total ASA class, N = 83): 25 (30.1) n (%)
subjects not requiring rescue midazolam, number and percent of column N ([1]; total, Age Group II (24 mo-<17 y), ASA P1, P2, N = 29): 4 (13.8) n (%)
subjects not requiring rescue midazolam, number and percent of column N ([1]; total, Age Group II (24 mo-<17 y), ASA P3, P4, N = 54): 8 (14.8) n (%)
subjects not requiring rescue midazolam, number and percent of column N ([1]; total, Age Group II (24 mo-<17 y), total ASA class, N = 83): 12 (14.5) n (%)
subjects with moderate and severe treatment-related adverse events ([2]; age group I, low dose): 27.0%
treatment-related agitation, subjects ([2]; age group I, low dose): 3.2%
treatment-related bradycardia, subjects ([2]; age group I, low dose): 3.2%
treatment-related hypertension, subjects ([2]; age group I, low dose): 3.2%
treatment-related hypotension, subjects ([2]; age group I, low dose): 4.8%
subjects with moderate and severe treatment-related adverse events ([2]; age group II, low dose): 30.8%
deaths (all unrelated to dexmedetomidine) ([2]; all subjects): 4
subjects with treatment-related adverse events leading to discontinuation of dexmedetomidine ([2]; all subjects (seven subjects)): 4.0%
subjects reporting severe treatment-related adverse events ([2]; overall (5/175), all in low dose groups): 2.9%
weight-adjusted total amount of rescue midazolam while intubated, mean ([3]; Dose Level 1 (LD 0.25/CD 0.2 μg/kg/hr), full evaluable population): 0.067 mg/kg
median time to first dose of rescue medication for sedation and analgesia ([3]; Dose Level 1, Table 26 (title: full evaluable population; b267: safety population)): 1.0 h
median time to successful extubation from start of DEX infusion [3, 5]: 0.6 h
total amount of rescue midazolam while intubated, mean [3, 5]: 1.292 mg
total amount of rescue midazolam while intubated, median [3, 5]: 0 mg
weight-adjusted total amount of rescue midazolam while intubated, median [3, 5]: 0 mg/kg
median time to first dose of rescue medication for sedation and analgesia ([3]; Dose Level 1, full evaluable population (Table 25)): 1.0 h
weight-adjusted total amount of rescue midazolam while intubated, mean ([3]; Dose Level 2 (LD 0.50/CD 0.4 μg/kg/hr), full evaluable population): 0.087 mg/kg
median time to first dose of rescue medication for sedation and analgesia ([3]; Dose Level 2, Table 26 (title: full evaluable population; b267: safety population)): 2.5 h
median time to successful extubation from start of DEX infusion [3, 6]: 0.8 h
total amount of rescue midazolam while intubated, mean [3, 6]: 1.369 mg
total amount of rescue midazolam while intubated, median [3, 6]: 1.000 mg
weight-adjusted total amount of rescue midazolam while intubated, median [3, 6]: 0.028 mg/kg
median time to first dose of rescue medication for sedation and analgesia ([3]; Dose Level 2, full evaluable population (Table 25)): 2.2 h
weight-adjusted total amount of rescue midazolam while intubated, mean ([3]; Dose Level 3 (LD 1.00/CD 0.7 μg/kg/hr), full evaluable population): 0.109 mg/kg
median time to first dose of rescue medication for sedation and analgesia ([3]; Dose Level 3, Table 26 (title: full evaluable population; b267: safety population)): 2.4 h
median time to successful extubation from start of DEX infusion [3, 7]: 1.7 h
total amount of rescue midazolam while intubated, mean [3, 7]: 2.141 mg
total amount of rescue midazolam while intubated, median [3, 7]: 0 mg
weight-adjusted total amount of rescue midazolam while intubated, median [3, 7]: 0 mg/kg
median time to first dose of rescue medication for sedation and analgesia ([3]; Dose Level 3, full evaluable population (Table 25)): 2.5 h
weight-adjusted total amount of rescue midazolam while intubated, mean ([3]; Dose Level 4 (LD 1.00/CD 2.00 μg/kg/hr), full evaluable population): 0.045 mg/kg
median time to first dose of rescue medication for sedation and analgesia ([3]; Dose Level 4, Table 26 (title: full evaluable population; b267: safety population)): 7.8 h
median time to successful extubation from start of DEX infusion [3, 8]: 6.8 h
total amount of rescue midazolam while intubated, mean [3, 8]: 0.769 mg
total amount of rescue midazolam while intubated, median [3, 8]: 0 mg
weight-adjusted total amount of rescue midazolam while intubated, median [3, 8]: 0 mg/kg
median time to first dose of rescue medication for sedation and analgesia ([3]; Dose Level 4, full evaluable population (Table 25)): 7.8 h
median time to extubation ([3]; Dose Levels 1, 2 and 3, full evaluable population): 0.6 to 1.7 h
subjects who received rescue midazolam for sedation while intubated ([3]; Group I (≥2 to <6 y), Dose Level 1 (LD 0.25/CD 0.2 μg/kg/hr), full evaluable population): 50.0 n (%)
subjects who received rescue midazolam for sedation while intubated ([3]; Group I (≥2 to <6 y), Dose Level 1 (LD 0.25/CD 0.2 μg/kg/hr), full evaluable population, listed as Dex): 4 (50.0) n (%)
subjects who received rescue midazolam for sedation while intubated ([3]; Group I (≥2 to <6 y), Dose Level 2 (LD 0.50/CD 0.4 μg/kg/hr), full evaluable population): 66.7 n (%)
subjects who received rescue midazolam for sedation while intubated ([3]; Group I (≥2 to <6 y), Dose Level 2 (LD 0.50/CD 0.4 μg/kg/hr), full evaluable population, listed as Dex): 4 (66.7) n (%)
subjects who received rescue midazolam for sedation while intubated ([3]; Group I (≥2 to <6 y), Dose Level 3 (LD 1.00/CD 0.7 μg/kg/hr), full evaluable population): 50.0 n (%)
subjects who received rescue midazolam for sedation while intubated ([3]; Group I (≥2 to <6 y), Dose Level 3 (LD 1.00/CD 0.7 μg/kg/hr), full evaluable population, listed as Dex): 3 (50.0) n (%)
subjects who received rescue midazolam for sedation while intubated ([3]; Group I (≥2 to <6 y), Dose Level 4 (LD 1.00/CD 2.00 μg/kg/hr), full evaluable population): 16.7 n (%)
subjects who received rescue midazolam for sedation while intubated ([3]; Group I (≥2 to <6 y), Dose Level 4 (LD 1.00/CD 2.00 μg/kg/hr), full evaluable population, listed as Dex): 1 (16.7) n (%)
subjects who received rescue midazolam for sedation while intubated ([3]; Group II (≥6 to <17 y), Dose Level 1 (LD 0.25/CD 0.2 μg/kg/hr), full evaluable population): 37.5 n (%)
subjects who received rescue midazolam for sedation while intubated ([3]; Group II (≥6 to <17 y), Dose Level 1 (LD 0.25/CD 0.2 μg/kg/hr), full evaluable population, listed as Dex): 3 (37.5) n (%)
subjects who received rescue midazolam for sedation while intubated ([3]; Group II (≥6 to <17 y), Dose Level 2 (LD 0.50/CD 0.4 μg/kg/hr), full evaluable population): 42.9 n (%)
subjects who received rescue midazolam for sedation while intubated ([3]; Group II (≥6 to <17 y), Dose Level 2 (LD 0.50/CD 0.4 μg/kg/hr), full evaluable population, listed as Dex): 3 (42.9) n (%)
subjects who received rescue midazolam for sedation while intubated ([3]; Group II (≥6 to <17 y), Dose Level 3 (LD 1.00/CD 0.7 μg/kg/hr), full evaluable population): 25.0 n (%)
subjects who received rescue midazolam for sedation while intubated ([3]; Group II (≥6 to <17 y), Dose Level 3 (LD 1.00/CD 0.7 μg/kg/hr), full evaluable population, listed as Dex): 2 (25.0) n (%)
subjects who received rescue midazolam for sedation while intubated ([3]; Group II (≥6 to <17 y), Dose Level 4 (LD 1.00/CD 2.00 μg/kg/hr), full evaluable population): 25.0 n (%)
subjects who received rescue midazolam for sedation while intubated ([3]; Group II (≥6 to <17 y), Dose Level 4 (LD 1.00/CD 2.00 μg/kg/hr), full evaluable population, listed as Dex): 2 (25.0) n (%)
subjects who received rescue midazolam for sedation while intubated ([3]; total age group, Dose Level 1, N = 16, full evaluable population): 7 (43.8) n (%)
subjects who received rescue midazolam for sedation while intubated ([3]; total age group, Dose Level 2, N = 13, full evaluable population): 7 (53.8) n (%)
subjects who received rescue midazolam for sedation while intubated ([3]; total age group, Dose Level 3, N = 14, full evaluable population): 5 (35.7) n (%)
subjects who received rescue midazolam for sedation while intubated ([3]; total age group, Dose Level 4, N = 14, full evaluable population): 3 (21.4) n (%)
time of (first) rescue midazolam after start of infusion ([4]; Subject 01-0001, dose level 2): 1.2 h
time of (first) rescue midazolam after start of infusion ([4]; Subject 01-0003, dose level 1): 5.27 h
time of extubation from the start of study drug ([4]; Subject 01-0006, dose level 1): 17.7 h
time of extubation from the start of study drug ([4]; Subject 01-0007, dose level 2): 26.27 h
median absolute time in target UMSS range 2 to 4 ([4]; dose level 1): 3.6 h
median absolute time with total UMSS score<2 ([4]; dose level 1): 2.5 h
median total FLACC score ([4]; dose level 1): 1.6
time in target UMSS range 2 to 4 ([4]; dose level 1): 58.9 % of the time
time with total UMSS score<2 ([4]; dose level 1): 41.1 % of the time
median absolute time in target UMSS range 2 to 4 ([4]; dose level 2): 5.9 h
median absolute time with total UMSS score<2 ([4]; dose level 2): 0.3 h
median total FLACC score ([4]; dose level 2): 4.4
time in target UMSS range 2 to 4 ([4]; dose level 2): 95.1 % of the time
time with total UMSS score<2 ([4]; dose level 2): 4.9%
effectiveness at sedating and keeping subjects comfortable ([4]; maintenance 0.5 μg/kg/hr and 0.75 μg/kg/hr): moderately effective
